Patent US20100029748A1, “Metastasis Promoting Genes and Proteins” (SLOAN-KETTERING INSTITUTE FOR CANCER RESEARCH, priority 2008, published 2010)

What was measured:
[1] = tested on: CN34-BrM2 cells; test: In vitro BBB transmigration assay, CN34-BrM2 cells; type: cell-based, human; conditions: cetuximab added to the media, FIG. 3C
Excerpt: To test the first aspect of this hypothesis, we focused on COX-2 and EGFR ligands, which are present both in the BrMS and the LMS, and were previously implicated in extravasation of breast cancer cells into the lungs^14. We used an in vitro BBB model that is based on human primary endothelial cells and astrocytes, plated on opposite sides of a porous membrane in a tissue culture insert (FIG. 3A)^20. After several days in culture, the endothelial monolayer in the upper side of the membrane differentiated into a tight barrier that resembles a BBB, as determined by its lack of permeability to albumin (FIG. 3B). Cancer cells in suspension were placed in the upper chamber of the inserts, and the BBB transmigration capacity of these cells was determined based on the proportion that migrated into the lower chamber.
Primary human umbilical vein endothelial cells (ScienCell) were co-cultured with human primary astrocytes (HA, ScienCell), on opposite sides of a polylysin-treated, gelatin-coated tissue culture trans-well insert for three days as previously described^20. Briefly, 3 microm pore PET tissue culture inserts (Fisher) were treated with polylysine (1 microg/ml, Millipore) overnight, washed four times, and coated with 0.2% gelatin (Sigma) for a minimum of 30 min. […] Medium from the bottom chamber was collected, and absorbance was measured at 620 nm. […]

[2] = tested on: MDA231-BrM2 cells; test: Brain metastasis in mice after intracardiac inoculation of MDA231-BrM2 cells; type: in vivo; conditions: mice injected with MDA231-BrM2a cells, pre-treated with cetuximab, biweekly i.p. 1 mg; versus vehicle; FIG. 3E
Experimental: (§1) A cell suspension containing 10^5 CN34 breast cancer cells in a volume of 100 microl was injected in the left cardiac ventricle of anesthetized 6-7 week old Cr:NIH-bg-nu-Xid mice. A cell suspension of 10^4 MDA-MB-231 breast cancer cells in a volume of 100 microl was injected in the left cardiac ventricle of anesthetized 6-7 week old athymic mice. Tumor development was monitored by weekly bioluminescence imaging using the IVIS-200 imaging system from Xenogen as previously described^9. Brain metastatic lesions were confirmed by magnetic resonance imaging (MRI), and histological analysis upon necropsy. Brain lesions were localized by ex vivo bioluminescence imaging, and resected under sterile conditions. Half of the tissue was fixed with 4% paraformaldehyde (PFA), and processed for histological analysis. The other half was minced and placed in culture medium containing a 1:1 mixture of Dulbecco's modified Eagle's (DME) medium/Ham's F12 supplemented with 0.125% collagenase III, 0.1% hyaluronidase. Samples were incubated at room temperature for 4-5 h, with gentle rocking. After collagenase treatment, cells were briefly centrifuged, resuspended in 0.25% trypsin, and incubated for an additional 15 min in a 37° C. water bath. Cells were resuspended in culture medium and allowed to grow to confluence on a 10 cm dish. GFP^+ cells were sorted for further in vivo passage. […]

[3] = tested on: CN34-BrM2 cells; test: Brain metastasis in mice after intracardiac inoculation of CN34-BrM2 cells; type: in vivo; conditions: mice injected with CN34-BrM2c cells, pre-treated with cetuximab, biweekly i.p. 1 mg; versus vehicle; FIG. 3E
Experimental: as §1

Substance: cetuximab
- BBB transmigration activity [1]: markedly decreased
- Brain metastasis-free survival [2]: prolonged
- Brain metastasis-free survival [3]: prolonged
